Measured values from patent publication US9573961B2, “Inhibitors of the renal outer medullary potassium channel” (Merck Sharp & Dohme Corp., priority 2012, dated 2017).

Amino acid sequences for entries named in this document (tags omitted). A change or cut given only in a name is not applied to a line headed by its entry.
UniProt P48048: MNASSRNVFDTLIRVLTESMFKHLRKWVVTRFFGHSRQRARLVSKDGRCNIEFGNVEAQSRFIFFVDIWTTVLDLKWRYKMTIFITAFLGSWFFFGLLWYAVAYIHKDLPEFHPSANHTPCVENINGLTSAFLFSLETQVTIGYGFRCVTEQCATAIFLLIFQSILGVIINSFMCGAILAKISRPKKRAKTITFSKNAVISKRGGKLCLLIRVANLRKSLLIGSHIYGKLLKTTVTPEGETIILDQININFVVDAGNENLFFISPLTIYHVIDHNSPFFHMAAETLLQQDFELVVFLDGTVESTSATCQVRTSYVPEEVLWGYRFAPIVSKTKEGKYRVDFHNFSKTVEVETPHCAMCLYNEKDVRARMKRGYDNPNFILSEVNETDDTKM

What was measured:
Kir1.1 (ROMK1) = Kir1.1 (ROMK1) (Homo sapiens (Human), UniProt P48048); test: Electrophysiology Assay (whole cell voltage clamp, IonWorks Quattro); type: cell-based; conditions: Chinese hamster ovary cells stably expressing Kir1.1; block during voltage step to 0 mV
Description: Chinese hamster ovary cells stably expressing Kir1.1 channels were maintained in T-75 flasks in cell culture media in a humidified 10% CO2 incubator at 37° C. Prior to an experiment, Kir1.1 expression was induced by overnight incubation with 1 mM sodium butyrate. […] After centrifugation, the cell pellet was resuspended in approximately 4.0 mL of bath solution and placed in the IonWorks instrument. The intracellular solution consisted of (in mM): 80 K gluconate, 40 KCl, 20 KF, 3.2 MgCl2, 3 EGTA, 5 Hepes, pH 7.4. Electrical access to the cytoplasm was achieved by perforation in 0.13 mg/mL amphotericin B for 4 min. […] Voltage protocols and current recordings were performed using the IonWorks HT software/hardware system. Currents were sampled at 1 kHz. No correction for liquid junction potentials was used. The test pulse, consisting of a 100 ms step to 0 mV from a holding potential of −70 mV, followed by a 100 ms voltage ramp from −70 mV to +70 mV, was applied before and after a 6 min compound incubation period. Test compounds were prepared by diluting DMSO stock solutions into the bath solution at 3× the final concentration and placed in the instrument in 96-well polypropylene plates. Current amplitudes were measured using the IonWorks software.

hROMK (hKir1.1) = hROMK (hKir1.1) (Homo sapiens (Human), UniProt P48048); test: Thallium Flux Assay (ROMK channel functional thallium flux, FLIPR-Tetra); type: cell-based; conditions: HEK293 cells stably expressing hROMK (hKir1.1)
Description: Cell Culture Conditions—HEK293 cells stably expressing hROMK (hKir1.1) were grown at 37° C. in a 10% CO2 humidified incubator in complete growth media: Dulbecco's Modified Eagle Medium supplemented with non-essential amino acids, Penicillin/Streptomycin/Glutamine, G418 and FBS. At >80% confluency, aspirate the media from the flask and rinse with 10 mL Calcium/Magnesium-free PBS. […] To dislodge the cell, gently bang the side of the flask with your hand. Triturate the cells completely and then transfer the cells to 25 mL complete media. Centrifuge at 1,500 rpm for 6 min followed by resuspension in complete growth media and determine cell concentration. […] Under ideal growth conditions and appropriate tissue culture practices, this cell line is stable for 40-45 passages.
FluxOR Kit Components (Invitrogen F10017) • FluxOR™ Reagent (Component A) • FluxOR™ Assay Buffer (Component B)—10× Concentrate • PowerLoad™ Concentrate (Component C)—100× Concentrate • Probenecid (Component D)—Lyophilized sample is kept at −20° C. Water soluble, 100× after solubilization in 1 mL water. […] Store at 4° C. • Thallium sulfate (Tl2SO4) Concentrate (Component G)—50 mM in water. Store at 4° C. • DMSO (dimethyl sulfoxide, Component H)—1 mL (100%)
Can be stored at room temperature • Stimulant Buffer (prepared at 5× final concentration in 1× FluxOR™ Chloride-Free Buffer): 7.5 mM Thallium sulfate and 0.75 mM Potassium sulfate (to give a final assay concentration of 3 mM Thallium/0.3 mM Potassium). Store at 4° C. when not in use. If kept sterile, this solution is good for months.
Assay Protocol—The ROMK channel functional thallium flux assay is performed in 384 wells, using the FLIPR-Tetra instrument. HEK-hKir1.1 cells are seeded in Poly-D-Lysine microplates and kept in a 37° C.-10% CO2 incubator overnight. On the day of the experiment, the growth media is replaced with the FluxOR™ reagent loading buffer and incubated, protected from light, at ambient temperature (23-25° C.) for 90 min. The loading buffer is replaced with assay buffer±test compound followed by 30 min incubation at ambient temperature, where the Thallium/Potassium stimulant is added to the microplate.
Step Protocol • 1. Seed HEK-hKir1.1 cells (50 μl at 20,000 cells/well) in 384-well PDL coated Microplates • 2. Allow cells to adhere overnight in humidified 37° C./10% CO2 incubator • 3. Completely remove cell growth media from microplate and replace with 25 μl loading buffer • 4. Incubate Microplate at room temperature, protected form light, for 90 min • 5. Remove loading buffer and replace with 25 μl 1× Assay Buffer±test compound. • 6. Incubate microplate at room temperature, protected from light, for 30 min • 7. […] Excitation=400 nm, Emission=460 & 580 nm. Collect data for ˜10 min.
Data Calculation—The fluorescence intensity of wells containing 3 μM of a standard control ROMK inhibitor of the present invention is used to define the ROMK-sensitive component of thallium flux. Fluorescence in the presence of test compounds is normalized to control values to provide % fluorescence change.

SMILES | IC50 (Kir1.1 (ROMK1)) [nM] | IC50 (hROMK (hKir1.1)) [nM]
C[C@@H]1Cc2cc([C@@H]3CN4CCN(C(=O)C5CCc6cc(-n7cnnn7)ccc65)C[C@H]4CO3)ccc2C(=O)O1 (single isomer, unassigned) [Example 84] | 240 | –
O=C1OCCc2cc([C@@H]3CN4CCN(C(=O)C5CCc6cc(-n7cnnn7)ccc65)C[C@H]4CO3)ccc21 (single isomer, unassigned) [Example 87] | 200 | –
C[C@@H]1Cc2cc([C@@H]3CN4CCN(C(=O)C5CCc6cc(-n7cnnn7)ccc65)C[C@H]4CO3)ccc2C(=O)O1 (single isomer, unassigned) [Example 85] | 200 | –
Cc1c([C@@H]2CN3CCN(C(=O)C4CCCc5cc(-n6cnnn6)ccc54)C[C@@H]3CO2)ccc(F)c1C#N (single isomer, unassigned) [Example 94] | 360 | 520
Cc1c([C@H]2CN3CCN(C(=O)C4CCCc5cc(-n6cnnn6)ccc54)C[C@@H]3CO2)ccc(F)c1C#N (single isomer, unassigned) [Example 95] | – | 580
O=C1OCCc2cc([C@@H]3CN4CCN(C(=O)C5CCc6cc(-n7cnnn7)ccc65)C[C@H]4CO3)ccc21 (stereo partly drawn) [Example 22, 6-[(3R,9aS)-8-{[5-(1H-tetrazol-1-yl)-2,3-dihydro-1H-inden-1-yl]carbonyl}octahydropyrazino[2,1-c][1,4]oxazin-3-yl]-3,4-dihydro-1H-isochromen-1-one] | 130 | 140
O=C1OCCc2cc([C@@H]3CN4CCN(C(=O)C5CCc6cc(-n7cnnn7)ccc65)C[C@H]4CO3)ccc21 (single isomer, unassigned) [Example 86] | 340 | –
Cc1c([C@@H]2CN3CCN(C(=O)C4CCCc5cc(-n6cnnn6)ccc54)C[C@H]3CO2)ccc(F)c1C#N (single isomer, unassigned) [Example 92] | 300 | 740
Cc1c([C@@H]2CN3CCN(C(=O)C4CCCc5cc(-n6cnnn6)ccc54)C[C@H]3CO2)ccc(F)c1C#N (single isomer, unassigned) [Example 91] | 390 | 190
Cc1c([C@H]2CN3CCN(C(=O)C4CCCc5cc(-n6cnnn6)ccc54)C[C@H]3CO2)ccc(F)c1C#N (single isomer, unassigned) [Example 93] | 390 | 270
